What was measured:
[1] = Total [14C] Chrysamine G binding to AD brain homogenates; parameters: species or system human
[2] = Total [14C] Chrysamine G binding to control brain homogenates; parameters: species or system human
[3] = Tissue levels after i.v. injection of [14C] Chrysamine G in mice (blood-brain barrier); format: in vivo, Swiss-Webster mice; settings: 15 min, highest of time points sampled
Aβ(10-43) = Aβ(10-43) (Homo sapiens, UniProt P05067); assay: Inhibition of [14C] Chrysamine G binding to Aβ(10-43); settings: in words; vs Chrysamine G or, for Chrysamine G, vs Congo red
PC-12 cells = assay: Protection from Aβ(25-35)-induced toxicity in PC-12 cells (MTT reduction); settings: in words

Chains of the proteins cited; added tags and fusions are not shown. Residues count along the entry.
UniProt P05067, 681-714: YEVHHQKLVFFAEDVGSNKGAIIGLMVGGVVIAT

Compound: O=C(O)c1cc(N=Nc2ccc(-c3ccc(N=Nc4ccc(O)c(C(=O)O)c4)cc3)cc2)ccc1O [Chrysamine G, 4,4'-bis(3-carboxy-4-hydroxyphenylazo)-biphenyl]
- total binding as a ratio to cerebellum (CBR) ([1]; Frontal Pole, AD (n = 10), p < 0.004): 1.87 ± .25
- total binding as a ratio to cerebellum (CBR) ([1]; Head of Caudate, AD (n = 7), p < 0.04): 1.76 ± .31
- total binding as a ratio to cerebellum (CBR) ([1]; Inferior Parietal, AD (n = 11), p < 0.003): 1.93 ± .20
- total binding as a ratio to cerebellum (CBR) ([1]; Occipital, AD (n = 11), p < 0.02): 1.44 ± .20
- total binding as a ratio to cerebellum (CBR) ([1]; Superior Temporal, AD (n = 11), p < 0.002): 1.63 ± .17
- total binding as a ratio to cerebellum (CBR) ([1]; Superior/Middle Frontal, AD (n = 11), p < 0.001): 1.84 ± .18
- overlap of binding ratio between control and AD samples ([1]; all brain areas except occipital cortex, AD samples >20 NPs/×200): no overlap between control and the AD samples
- overlap of binding ratio between control and AD samples ([1]; superior/middle frontal cortex): no overlap between control and any of the AD samples
- total binding as a ratio to cerebellum (CBR) ([2]; Frontal Pole, Control (n = 6)): 0.87 ± .04
- total binding as a ratio to cerebellum (CBR) ([2]; Head of Caudate, Control (n = 4)): 0.95 ± .04
- total binding as a ratio to cerebellum (CBR) ([2]; Inferior Parietal, Control (n = 8)): 0.90 ± .08
- total binding as a ratio to cerebellum (CBR) ([2]; Occipital, Control (n = 8)): 0.77 ± .13
- total binding as a ratio to cerebellum (CBR) ([2]; Superior Temporal, Control (n = 8)): 0.86 ± .08
- total binding as a ratio to cerebellum (CBR) ([2]; Superior/Middle Frontal, Control (n = 8)): 0.73 ± .02
- brain/kidney ratio [3]: ~0.5
- potency/affinity relative to reference compound (Aβ(10-43)): several fold greater than the affinity of Congo red
- potency of protection relative to Congo red (PC-12 cells): more potent than Congo red
